We go through one compound from article doi:10.1101/2021.04.08.439011v1 (biorxiv, 2021).

By UniProt entry, the sequences of proteins in these tests, tags left out. Residues count along the entry.
UniProt Q9P289, 1-300: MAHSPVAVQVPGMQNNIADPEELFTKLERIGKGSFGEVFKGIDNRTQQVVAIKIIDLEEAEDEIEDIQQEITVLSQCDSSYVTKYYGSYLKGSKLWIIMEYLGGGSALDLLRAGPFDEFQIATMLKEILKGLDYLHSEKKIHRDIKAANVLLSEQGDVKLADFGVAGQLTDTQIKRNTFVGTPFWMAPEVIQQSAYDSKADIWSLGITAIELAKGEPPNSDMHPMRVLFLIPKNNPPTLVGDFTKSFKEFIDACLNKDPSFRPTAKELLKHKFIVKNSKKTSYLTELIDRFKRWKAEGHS
UniProt Q9Y6E0, 4-301: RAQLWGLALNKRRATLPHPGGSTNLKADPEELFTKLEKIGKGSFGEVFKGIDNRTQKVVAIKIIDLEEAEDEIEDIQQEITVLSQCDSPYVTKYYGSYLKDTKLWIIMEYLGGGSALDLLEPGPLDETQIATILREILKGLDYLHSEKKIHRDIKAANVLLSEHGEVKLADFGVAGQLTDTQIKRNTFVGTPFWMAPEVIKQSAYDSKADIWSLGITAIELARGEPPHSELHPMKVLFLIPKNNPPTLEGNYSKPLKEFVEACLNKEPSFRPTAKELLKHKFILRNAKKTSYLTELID

Test [1] has as its target MST4 (Homo sapiens, UniProt Q9P289). Particulars: binder.
Test [2] addresses MST3 (Homo sapiens, UniProt Q9Y6E0). As to conditions: binder.

Regarding `CN[C@@H]1C[C@H]2O[C@@](C)([C@@H]1OC)n1c3ccccc3c3c4c(c5c6ccccc6n2c5c31)C(=O)NC4` [Staurosporine], the “ΔTm [°C] MST4” value in test [1] is 7.1 ± 0.5 °C. The “ΔTm [°C] MST3” value in test [2] was determined as 8.8 ± 0.2 °C.
